pEC50: −log10 of the molar value.

The chains behind the UniProt entries cited, without tags or fusion partners. Residues count along the entry.
UniProt P47871, 26-477: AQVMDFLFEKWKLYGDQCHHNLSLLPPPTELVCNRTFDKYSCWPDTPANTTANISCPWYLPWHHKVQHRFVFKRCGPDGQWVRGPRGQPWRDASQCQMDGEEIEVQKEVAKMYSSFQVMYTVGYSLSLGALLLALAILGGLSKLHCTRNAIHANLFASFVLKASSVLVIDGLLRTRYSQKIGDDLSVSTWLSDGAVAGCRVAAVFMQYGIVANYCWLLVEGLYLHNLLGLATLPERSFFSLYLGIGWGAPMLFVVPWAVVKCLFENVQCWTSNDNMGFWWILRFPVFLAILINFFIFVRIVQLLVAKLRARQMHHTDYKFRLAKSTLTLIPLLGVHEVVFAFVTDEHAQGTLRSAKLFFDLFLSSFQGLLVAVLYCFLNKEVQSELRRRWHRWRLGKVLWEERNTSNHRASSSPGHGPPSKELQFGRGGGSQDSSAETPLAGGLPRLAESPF
UniProt P43220, 24-463: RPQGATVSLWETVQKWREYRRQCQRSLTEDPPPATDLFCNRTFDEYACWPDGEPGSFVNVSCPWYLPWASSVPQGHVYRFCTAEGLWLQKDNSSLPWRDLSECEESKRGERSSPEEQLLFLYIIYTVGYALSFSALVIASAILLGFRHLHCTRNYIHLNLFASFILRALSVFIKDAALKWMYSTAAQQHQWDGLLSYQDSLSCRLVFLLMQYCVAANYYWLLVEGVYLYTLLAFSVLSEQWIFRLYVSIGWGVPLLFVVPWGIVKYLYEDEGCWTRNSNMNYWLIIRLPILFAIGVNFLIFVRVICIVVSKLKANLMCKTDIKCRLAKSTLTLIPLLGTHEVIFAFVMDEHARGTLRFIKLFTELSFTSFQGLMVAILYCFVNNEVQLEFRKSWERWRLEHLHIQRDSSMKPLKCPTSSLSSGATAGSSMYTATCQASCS

One experiment deals with T1, human glucagon receptor (Homo sapiens, UniProt P47871).
T1 construct: expressed in transfected cells; host or cells: HEK-293
Description: cAMP response (HTRF) of HEK-293 cells stably expressing human glucagon receptor. To be noted: Table 5; cAMP, HEK-293; read-out: EC50 hGlucagon-R. Type of experiment: cell-based.

A further experiment has as its target T2, human GLP-1 receptor (Homo sapiens, UniProt P43220).
T2 construct: expressed in transfected cells; host or cells: HEK-293
Description: cAMP response (HTRF) of HEK-293 cells stably expressing human GLP-1 receptor. To be noted: Table 5; cAMP, HEK-293; read-out: EC50 hGLP-1R. Type of experiment: cell-based.

Regarding `CCCCCCCCCCCCCCCCCCCCC(=O)N[C@@H](CCC(=O)NCCCC[C@H](NC(=O)[C@H](CCC(N)=O)NC(=O)[C@H](CCCCN)NC(=O)[C@H](CO)NC(=O)[C@H](CC(C)C)NC(=O)[C@H](CC(=O)O)NC(=O)[C@H](CO)NC(=O)[C@@H](NC(=O)[C@H](Cc1ccccc1)NC(=O)[C@@H](NC(=O)CNC(=O)[C@H](CCC(N)=O)NC(=O)C(C)(C)NC(=O)[C@@H](N)Cc1c[nH]cn1)[C@@H](C)O)[C@@H](C)O)C(=O)N[C@@H](CCC(=O)O)C(=O)N[C@@H](CO)C(=O)N[C@@H](CCCNC(=N)N)C(=O)N[C@@H](C)C(=O)N[C@@H](C)C(=O)N[C@@H](CCC(N)=O)C(=O)N[C@@H](CC(C)C)C(=O)N[C@@H](Cc1ccccc1)C(=O)N[C@H](C(=O)N[C@@H](CCC(=O)O)C(=O)N[C@@H](Cc1c[nH]c2ccccc12)C(=O)N[C@@H](CC(C)C)C(=O)N[C@@H](CCCCN)C(=O)N[C@@H](C)C(=O)N[C@H](C)C(=O)NCC(=O)N1CCC[C@H]1C(=O)N[C@@H](CO)C(=O)N[C@@H](CO)C(=O)NCC(=O)N[C@@H](C)C(=O)N1CCC[C@H]1C(=O)N1CCC[C@H]1C(=O)N1CCC[C@H]1C(=O)N[C@@H](CO)C(N)=O)[C@@H](C)CC)C(=O)O` [compound 204], the negative logarithm of the EC50 (pEC50) was 10.90 on human glucagon receptor and 10.47 at human GLP-1 receptor.

With `CCCCCCCCCCCCCCCCCCCC(=O)N[C@@H](CCC(=O)NCCCC[C@H](NC(=O)[C@H](CCC(N)=O)NC(=O)[C@H](CCCCN)NC(=O)[C@H](CO)NC(=O)[C@H](CC(C)C)NC(=O)[C@H](CC(=O)O)NC(=O)[C@H](CO)NC(=O)[C@@H](NC(=O)[C@H](Cc1ccccc1)NC(=O)[C@@H](NC(=O)CNC(=O)[C@H](CCC(N)=O)NC(=O)[C@@H](CO)NC(=O)[C@@H](N)Cc1c[nH]cn1)[C@@H](C)O)[C@@H](C)O)C(=O)N[C@@H](CC(=O)O)C(=O)N[C@@H](CO)C(=O)N[C@@H](CCCCN)C(=O)N[C@@H](C)C(=O)N[C@@H](C)C(=O)N[C@@H](CCC(N)=O)C(=O)N[C@@H](CC(=O)O)C(=O)N[C@@H](Cc1ccccc1)C(=O)N[C@H](C(=O)N[C@@H](CCC(=O)O)C(=O)N[C@@H](Cc1c[nH]c2ccccc12)C(=O)N[C@@H](CC(C)C)C(=O)N[C@@H](CCCCN)C(=O)N[C@@H](C)C(=O)NCC(=O)NCC(=O)N1CCC[C@H]1C(=O)N[C@@H](CO)C(=O)N[C@@H](CO)C(=O)NCC(=O)N[C@@H](C)C(=O)N1CCC[C@H]1C(=O)N1CCC[C@H]1C(=O)N1CCC[C@H]1C(=O)N[C@@H](CO)C(N)=O)[C@@H](C)CC)C(=O)O` [compound 142], the pEC50 at human glucagon receptor is 11.68; at human GLP-1 receptor, 11.39.

`CCCCCCCCCCCCCCCCCC(=O)N[C@@H](CCC(=O)NCCCC[C@H](NC(=O)[C@H](CCC(N)=O)NC(=O)[C@H](CCCCN)NC(=O)[C@H](CO)NC(=O)[C@H](CC(C)C)NC(=O)[C@H](CC(=O)O)NC(=O)[C@H](CO)NC(=O)[C@@H](NC(=O)[C@H](Cc1ccccc1)NC(=O)[C@@H](NC(=O)CNC(=O)[C@H](Cc1c[nH]cn1)NC(=O)[C@@H](CO)NC(=O)[C@@H](N)Cc1c[nH]cn1)[C@@H](C)O)[C@@H](C)O)C(=O)N[C@@H](CC(=O)O)C(=O)N[C@@H](CCC(=O)O)C(=O)N[C@@H](CCC(=O)O)C(=O)N[C@@H](C)C(=O)N[C@@H](C)C(=O)N[C@@H](CCCNC(=N)N)C(=O)N[C@@H](CC(C)C)C(=O)N[C@@H](Cc1ccccc1)C(=O)N[C@H](C(=O)N[C@@H](CCC(=O)O)C(=O)N[C@@H](Cc1c[nH]c2ccccc12)C(=O)N[C@@H](CC(C)C)C(=O)N[C@@H](CCCCN)C(=O)N[C@@H](C)C(=O)NCC(=O)NCC(=O)N1CCC[C@H]1C(=O)N[C@@H](CO)C(=O)N[C@@H](CO)C(=O)NCC(=O)N[C@@H](C)C(=O)N1CCC[C@H]1C(=O)N1CCC[C@H]1C(=O)N1CCC[C@H]1C(=O)N[C@@H](CO)C(N)=O)[C@@H](C)CC)C(=O)O` [compound 220]: the pEC50 is 11.64 on human glucagon receptor and 11.70 on human GLP-1 receptor.

On to `CCCCCCCCCCCCCCCC(=O)N[C@@H](CCC(=O)NCCCC[C@H](NC(=O)[C@H](CCC(N)=O)NC(=O)[C@H](CCCCN)NC(=O)[C@H](CO)NC(=O)[C@H](CC(C)C)NC(=O)[C@H](CC(=O)O)NC(=O)[C@H](CO)NC(=O)[C@@H](NC(=O)[C@H](Cc1ccccc1)NC(=O)[C@@H](NC(=O)CNC(=O)[C@H](CCC(N)=O)NC(=O)C(C)(C)NC(=O)[C@@H](N)Cc1c[nH]cn1)[C@@H](C)O)[C@@H](C)O)C(=O)N[C@@H](CCC(=O)O)C(=O)N[C@@H](CO)C(=O)N[C@@H](CCCNC(=N)N)C(=O)N[C@@H](CCCNC(=N)N)C(=O)N[C@@H](C)C(=O)N[C@@H](CCC(N)=O)C(=O)N[C@@H](CC(=O)O)C(=O)N[C@@H](Cc1ccccc1)C(=O)N[C@H](C(=O)N[C@@H](CCC(=O)O)C(=O)N[C@@H](Cc1c[nH]c2ccccc12)C(=O)N[C@@H](CC(C)C)C(=O)N[C@@H](CCCCN)C(=O)N[C@@H](C)C(=O)NCC(=O)NCC(=O)N1CCC[C@H]1C(=O)N[C@@H](CO)C(=O)N[C@@H](CO)C(=O)NCC(=O)N[C@@H](C)C(=O)N1CCC[C@H]1C(=O)N1CCC[C@H]1C(=O)N1CCC[C@H]1C(=O)N[C@@H](CO)C(N)=O)[C@@H](C)CC)C(=O)O` [compound 77], for which the values for the negative logarithm of the EC50 (pEC50) at human glucagon receptor and at human GLP-1 receptor were 10.92 and 11.37, respectively.

Regarding `CCCCCCCCCCCCCCCCCC(=O)N[C@@H](CCC(=O)NCCCC[C@H](NC(=O)[C@H](CCC(N)=O)NC(=O)[C@H](CCCCN)NC(=O)[C@H](CO)NC(=O)[C@H](CC(C)C)NC(=O)[C@H](CC(=O)O)NC(=O)[C@H](CO)NC(=O)[C@@H](NC(=O)[C@H](Cc1ccccc1)NC(=O)[C@@H](NC(=O)CNC(=O)[C@H](CCC(N)=O)NC(=O)[C@@H](CO)NC(=O)[C@@H](N)Cc1c[nH]cn1)[C@@H](C)O)[C@@H](C)O)C(=O)N[C@@H](CCC(=O)O)C(=O)N[C@@H](CO)C(=O)NC(C)(C)C(=O)N[C@@H](C)C(=O)N[C@@H](C)C(=O)N[C@@H](CCC(N)=O)C(=O)N[C@@H](CC(=O)O)C(=O)N[C@@H](Cc1ccccc1)C(=O)N[C@H](C(=O)N[C@@H](CCC(=O)O)C(=O)N[C@@H](Cc1c[nH]c2ccccc12)C(=O)N[C@@H](CC(C)C)C(=O)N[C@@H](CCCCN)C(=O)N[C@@H](C)C(=O)NCC(=O)NCC(=O)N1CCC[C@H]1C(=O)N[C@@H](CO)C(=O)N[C@@H](CO)C(=O)NCC(=O)N[C@@H](C)C(=O)N1CCC[C@H]1C(=O)N1CCC[C@H]1C(=O)N1CCC[C@H]1C(=O)N[C@@H](CO)C(N)=O)[C@@H](C)CC)C(=O)O` [compound 11], the negative logarithm of the EC50 (pEC50) on human glucagon receptor is 10.59; at human GLP-1 receptor, 11.44.

Regarding `CCCCCCCCCCCCCCCC(=O)N[C@@H](CCC(=O)NCCCC[C@H](NC(=O)[C@H](CCC(N)=O)NC(=O)[C@H](CCCCN)NC(=O)[C@H](CO)NC(=O)[C@H](CC(C)C)NC(=O)[C@H](CC(=O)O)NC(=O)[C@H](CO)NC(=O)[C@@H](NC(=O)[C@H](Cc1ccccc1)NC(=O)[C@@H](NC(=O)CNC(=O)[C@H](CCC(N)=O)NC(=O)[C@@H](CO)NC(=O)[C@@H](N)Cc1c[nH]cn1)[C@@H](C)O)[C@@H](C)O)C(=O)N[C@@H](CCC(=O)O)C(=O)N[C@@H](CO)C(=O)N[C@@H](CCCNC(=N)N)C(=O)N[C@@H](C)C(=O)N[C@@H](C)C(=O)N[C@@H](CCC(N)=O)C(=O)N[C@@H](CC(C)C)C(=O)N[C@@H](Cc1ccccc1)C(=O)N[C@H](C(=O)N[C@@H](CCC(=O)O)C(=O)N[C@@H](Cc1c[nH]c2ccccc12)C(=O)N[C@@H](CC(C)C)C(=O)N[C@@H](CCCCN)C(=O)N[C@@H](C)C(=O)NCC(=O)NCC(=O)N1CCC[C@H]1C(=O)N[C@@H](CO)C(=O)N[C@@H](CO)C(=O)NCC(=O)N[C@@H](C)C(=O)N1CCC[C@H]1C(=O)N1CCC[C@H]1C(=O)N1CCC[C@H]1C(=O)N[C@@H](CO)C(N)=O)[C@@H](C)CC)C(=O)O` [compound 48], the pEC50 was 10.27 on human glucagon receptor and 11.23 at human GLP-1 receptor.

Take `CCCCCCCCCCCCCCCC(=O)N[C@@H](CCC(=O)NCCCC[C@H](NC(=O)[C@H](CCC(N)=O)NC(=O)[C@H](CCCCN)NC(=O)[C@H](CO)NC(=O)[C@H](CC(C)C)NC(=O)[C@H](CC(=O)O)NC(=O)[C@H](CO)NC(=O)[C@@H](NC(=O)[C@H](Cc1ccccc1)NC(=O)[C@@H](NC(=O)CNC(=O)[C@H](CCC(N)=O)NC(=O)C(C)(C)NC(=O)[C@@H](N)Cc1c[nH]cn1)[C@@H](C)O)[C@@H](C)O)C(=O)N[C@@H](CCC(=O)O)C(=O)N[C@@H](CO)C(=O)N[C@@H](CCC(N)=O)C(=O)N[C@@H](C)C(=O)N[C@@H](C)C(=O)N[C@@H](CCC(N)=O)C(=O)N[C@@H](CCC(=O)O)C(=O)N[C@@H](Cc1ccccc1)C(=O)N[C@H](C(=O)N[C@@H](CCC(=O)O)C(=O)N[C@@H](Cc1c[nH]c2ccccc12)C(=O)N[C@@H](CC(C)C)C(=O)N[C@@H](CCCCN)C(=O)N[C@@H](C)C(=O)NCC(=O)NCC(=O)N1CCC[C@H]1C(=O)N[C@@H](CO)C(=O)N[C@@H](CO)C(=O)NCC(=O)N[C@@H](C)C(=O)N1CCC[C@H]1C(=O)N1CCC[C@H]1C(=O)N1CCC[C@H]1C(=O)N[C@@H](CO)C(N)=O)[C@@H](C)CC)C(=O)O` [compound 38]: the results for the negative logarithm of the EC50 (pEC50) at human glucagon receptor and on human GLP-1 receptor were 10.27 and 11.54, respectively.

As for `CCCCCCCCCCCCCCCC(=O)NCCCC[C@H](NC(=O)[C@H](CCC(N)=O)NC(=O)[C@H](CCCCN)NC(=O)[C@H](CO)NC(=O)[C@H](CC(C)C)NC(=O)[C@H](CC(=O)O)NC(=O)[C@H](CO)NC(=O)[C@@H](NC(=O)[C@H](Cc1ccccc1)NC(=O)[C@@H](NC(=O)CNC(=O)[C@H](CCC(N)=O)NC(=O)[C@@H](CO)NC(=O)[C@@H](N)Cc1c[nH]cn1)[C@@H](C)O)[C@@H](C)O)C(=O)N[C@@H](CCC(=O)O)C(=O)N[C@@H](CO)C(=O)N[C@@H](CCCNC(=N)N)C(=O)N[C@@H](C)C(=O)N[C@@H](C)C(=O)NC(C)(C)C(=O)N[C@@H](CC(C)C)C(=O)N[C@@H](Cc1ccccc1)C(=O)N[C@H](C(=O)N[C@@H](CCC(=O)O)C(=O)N[C@@H](Cc1c[nH]c2ccccc12)C(=O)N[C@@H](CC(C)C)C(=O)N[C@@H](CCCCN)C(=O)N[C@@H](CC(N)=O)C(=O)NCC(=O)NCC(=O)N1CCC[C@H]1C(=O)N[C@@H](CO)C(=O)N[C@@H](CO)C(=O)NCC(=O)N[C@@H](C)C(=O)N1CCC[C@H]1C(=O)N1CCC[C@H]1C(=O)N1CCC[C@H]1C(=O)N[C@@H](CO)C(N)=O)[C@@H](C)CC` [compound 122], the pEC50 is 9.81 at human glucagon receptor and 10.60 at human GLP-1 receptor.

The values are drawn from US20140100156A1 (SANOFI, priority 2012, published 2014).
